“Also recorded” adds a separate entry of the source.

For one data set, the system named is U87 glioma tumor. The experiment in a line: NIR-II imaging of tumor blood supply network. The class given is in vivo, mice. The source says: To visualize the blood supply network in a tumor, NIR-II images were captured after injection of heated IR-820-HSA into the tail vein of tumor-bearing nude mice. […] The original main blood supply vessels are shown in FIG. 5D and a week later in FIG. 5E, the results being verified after dissection, as shown in FIG. 5F.
The resolutions of the tumor blood vessels under different wavelength filters of 1000LP and 1200LP were compared using SBR and Gaussian FWHM. SBR and FWHM increased from 1.4 to 1.8 and from 656 μm to 441 μm, respectively (FIG. 5C). A tumor blood supply network with gradual change was clearly observed in NIR-II images, illustrating that fluorescence-visible monitoring is possible for tumor blood vessels treatment.
U87MG human glioma, 143B human bone osteosarcoma, and mouse embryonic fibroblast NIH/3T3 cell lines were obtained from the American Type Culture Collection and cultured in high-glucose Dulbecco's modified Eagle medium (DMEM) containing 10% FBS, 100 IU/mL penicillin, and 100 μg/mL streptomycin at 37° C. with 5% CO2 atmosphere. Eight-week-old female C57BL/6 mice and NU/NU mice were used. About 2×10^6 U87MG or 143B cells in DMEM media (no FBS) were hypodermically injected into the left shoulder of the nude mice.
(§1) Before imaging, all mice were anesthetized in a rodent anesthesia machine with 2 L/min O^2 gas mixed with 3% Soflurane. C57BL/6 mice were used for the vascular and lymphatic system NIR-II imaging. […] A gentle massage was performed at the injection site to increase the speed of diffusion into the lymphatic system. […] All groups within the study contained n=3 mice.
(§2) All NIR-II images were collected on a two-dimensional InGaAs array NIR-II system (Princeton Instruments). The excitation was provided by an 808 nm diode laser through an optical fiber and collimator. Fluorescence emission was collected with 1000 nm or more than 1000 nm long-pass filters (Thorlabs). A lens set was used to obtain tunable magnifications ranging from 1× (whole body) to 2.5× (high magnification) by changing the relative position of two NIR achromats (75 mm and 200 mm, Thorlabs). Image J software were used for analyzing the images.

A short description of data set [1]: H&E staining of major organs and tumor after injection. The class given is in vivo, mice. The following applies: 7 days after injection/imaging, heart, lung, liver, spleen, kidney. On the procedure: (§3) Ex vivo NIR II fluorescence imaging of the dissected tumor and organs obtained from tumor-bearing mice 8 h after injection were used to further assess the biodistribution of probe (FIG. 6D). […] 7 days after imaging, the mice were killed and dissected. […] After coating with HSA, IR-820 successfully imaged the tumor with vasculature leakiness combined with poorly formed lymphatic drainage.
The obtained major organs were fixed with 4% paraformaldehyde overnight. Afterwards, these organs were embedded in optimal cutting temperature (OCT) compound (TISSUE-TEK®, Sakura Finetek, USA), sectioned into 8 μm slices in the cryostat at −20° C. with a microtome and transferred onto microscope slides for hematoxylin and eosin (H&E) using SHANDON® rapid Chrome kit (Thermo Scientific, USA). The stained sections were imaged under NanoZoomer 2.0RS.

A short description of data set [2]: Stability of fluorescence intensity in PBS, FBS and DI water. In kind it is physicochemical. The following applies: up to 24 hours.
The nature of data set [3]: Photostability under continuous illumination at 808 nm. In kind it is physicochemical. The note with it: DI water, 10 μM. An excerpt:
The enhancement in FBS might be attributable to the increased albumin from FBS. Additionally, the decrease in fluorescence intensity in PBS might be due to an increase in ionic strength in PBS, which partly affects the binding stability between IR-820 and HSA (Jones et al., (2012) Thermochim. Acta 545: 112-115).
After normalized by dividing the fluorescence intensity of each time point by the fluorescence intensity at t=0, the photobleaching curves were made.

The test system of data set [4] is 143B osteosarcoma tumor. The experiment in a line: NIR-II image-guided tumor resection. In kind it is in vivo, mice. The following applies: after tumor completely removed. The source says: In NIR-II imaging (FIG. 7), tumor could be clearly recognized on the left shoulder where tumor cells had been injected before surgery. After incision of skin, the tumor was exposed with clear delineation with a tumor-to-background ratio of 15 between the tumor and the adjacent tissue.

Data set [5] deals with 143B osteosarcoma tumor. The experiment in a line: NIR-II and photoacoustic imaging of tumor. The note with it: imaged 1 h to 48 h, 808 nm excitation. In kind it is in vivo, mice. On the procedure: as §1, §2
In data set [6] the test system is 143B osteosarcoma tumor. Put plainly: Ex vivo NIR-II fluorescence biodistribution in dissected tumor and organs. The note with it: 8 h after injection. Set-up: species or system mice. The protocol: as §3
The subject of data set [7] is C57BL/6 mice. The experiment in a line: In vivo NIR-II imaging of lymphatic system. The protocol: For the right low limb blood vessel in FIG. 3B, the adjacent artery and vein were distinguished in the middle part of the limb, with the SBR of 2.05, 2.25 and FWHM of 406 μm, 633 μm (FIG. 3D), respectively. […] Small blood vessels were visible in the abdomen (FIG. 3C). […] A gentle massage was performed on the injection site for faster diffusion into the lymphatic system. The popliteal sciatic lymph nodes connected with lymphatic vessels were identified after probe injection into each side of the footpad. However, the fluorescence intensity on the right side was more evident (FIG. 4A). The right inguinal lymph node and connected lymphatic vessels were sequentially observed after the probe was subcutaneously injected into the middle of the tail.
as §1, §2
(§4) The fluorescence measurement was performed to quantify NIR-II fluorescence signal intensity through the Image J software (National Institutes of Health, Bethesda, Md.). The line graphs and Gaussian-fitted FWHM were analysis by origin 8.5 (OriginLab Corporation, Northampton, Mass.).

Data set [8] can be described thus: Absorbance spectra in deionized water. The class given is physicochemical. The following applies: DI water. An excerpt: To investigate the binding site of IR-820 with HSA molecular modeling using SybyI-X software was used. […] Many commonly used drugs with acidic or electronegative features bind to HSA, usually at one of two primary sites, located in subdomains IIA and IIIA, respectively (Hoogenboezem & Duvall (2018) Adv. Drug Deliv. Rev. 130: 73-89; Ghuman et al., (2005) J. Mol. Biol. 353: 38-52). […] IIA also contains a large hydrophobic cavity with the ability to bind many kinds of drugs, which is in consist with the result shown in FIG. 10. […] Upon binding to HSA, the free single-button rotation of IR-820 is limited by HSA, resulting in enhanced fluorescence by a mechanism similar to aggregation-induced emission, in which the free movement of the fluorophore is reduced to produce brighter fluorescence and reduced fluorescence self-quenching (Li & Li (2017) Adv. Sci. (Weinh) 4: 1600484; Anger et al., (2006) Phys. Rev. Lett. 96: 113002). […]
Absorbance spectra of IR-820 and complexes were taken on an ultraviolet-visible-NIR Cary 60 spectrometer (Agilent Technologies) with background correction. The NIR-II fluorescence emission spectrum was captured on a home-built spectroscopy set-up by exciting IR-820 and complexes with an 808 nm laser diode with a power output of 100 mW. […]

Data set [9] concerns C57BL/6 mice. The experiment in a line: In vivo NIR-II imaging of vascular system. The protocol: Moreover, using the Gaussian-fitted full width at half maximum (FWHM) of the cross-sectional intensity profiles of the blood vessels, FWHM of the corresponding vessel in the NIR-II window was obtained.
as §1, §2, §4

In the next data set the test system is NIH3T3 cells. The experiment in a line: MTT cytotoxicity assay. The note with it: NIH3T3, concentrations up to 200 μM, 48 h. The class given is cell-based, mouse. The protocol: NIH3T3 cells (5×10^3 cells per well) were seeded in 96-well plates in DMEM with 10% FBS. […] After that, MTT (10 μl, 0.5 mg/ml) solution was added to each well and incubated for 4 h at 37° C. The residues were lysed with 200 μl of dimethyl sulfoxide after removing the supernatant. Then a standard MTT method was performed for measuring the cell viability with a Bio-Rad microplate reader. The relative cell viability (%) was calculated by (Asample/Ablank)×100%. All samples were used in triplicate, and the related experiments were all replicated three times.
(In general: Formazan colour is commonly taken as a measure of viable cells.)

[10] abbreviates: lateral position, tail injection.
[11] abbreviates: prone position, subcutaneous footpad injection.
Setting [12] is: supine position, tail injection.
[13] abbreviates: right low limb, middle part, heated IR-820-HSA i.v.
Where [14] appears, read: right low limb, middle part, heated IR-820-HSA i.v., 30 min after injection.

As to “heated IR-820-HSA: IR-820-HSA complex solution put in water bath for 10 min at 60° C.”, in the data set on U87 glioma tumor (1000LP filter), the “FWHM of tumor blood vessels” value turned out to be 656 μm and the “SBR of tumor blood vessels” value is given as 1.4. For the same substance, in the data set with U87 glioma tumor (1200LP filter), the “FWHM of tumor blood vessels” value is 441 μm and the “SBR of tumor blood vessels” value came to 1.8.

For the substance “IR-820-HSA: dye-protein complex of IR-820 and human serum albumin, mixed in DI water at molar ratio 1:2”, in data set [1], the “H&E stained major organ and tumor slices” value is listed as “no abnormality was observed; also recorded: No abnormalities were observed”. Moreover, in data set [2] (in DI water), the “increase of fluorescence intensity” value is recorded as roughly 20%. Further, the “increase of fluorescence intensity” value in [2] (in FBS) was roughly 20%. The “photostability compared to free IR-820” value in data set [3] is “greater photostability”. The “residue in NIR-II imaging after resection” value with 143B osteosarcoma tumor [4] is on record as “no residue was found”. For the same substance, the “time of maximum NIR II fluorescence signal in the tumor after injection” value in the data set with 143B osteosarcoma tumor [5] is “about 18 h”. Moreover, in the data set with 143B osteosarcoma tumor [6], the “ex vivo NIR II fluorescence in liver” value is given as “accumulation” and the “ex vivo NIR II fluorescence in tumor” value is given as “high NIR II fluorescence intensity”. In the data set with C57BL/6 mice [7] (setting [10]), the “FWHM of lymphatic vessels” value is listed as 472 μm and the “SBR of lymphatic vessels” value was determined as 1.94. Besides, in the data set with C57BL/6 mice [7] (setting [11]), the “FWHM of lymphatic vessels” value is reported as 551 μm and the “SBR of lymphatic vessels” value is given as 4.77. For the same substance, in the data set on C57BL/6 mice [7] (setting [12]), the “FWHM of lymphatic vessels” value was determined as 420 μm and the “SBR of lymphatic vessels” value turned out to be 2.33. Further, in data set [8], the absorbance strong peak is 835 nm and the absorbance weak shoulder worked out at 765 nm. Further, in the data set with C57BL/6 mice [9] (abdomen), the “FWHM of blood vessels” value was 246 μm and the “highest SBR of blood vessels” value stood at 2.4. Further, in the data set with C57BL/6 mice [9] (clear blood vessel images still available for 30 mins), the “circulation retention in vivo” value is given as “good circulation retention time”. Further, in the data set with C57BL/6 mice [9] (setting [13]), the FWHM of artery is listed as 406 μm and the FWHM of vein is on record as 633 μm. In the data set on C57BL/6 mice [9] (setting [14]), this substance returned an SBR of artery of 2.05 and an SBR of vein of 2.25. Besides, the “SNR of blood vessel” value in the data set with C57BL/6 mice [9] (right low limb, proximal end of the blood vessel) was 2.93. Further, in the data set on NIH3T3 cells, the “cytotoxicity (MTT)” value is given as “No apparent cytotoxicity”.

Source of the values: US20200368371A1, “DYE-PROTEIN COMPLEX FOR NIR II AND PHOTOACOUSTIC IMAGING” (The Board of Trustees of the Leland Stanford Junior …, priority 2019, published 2020).
